An excerpt weighted towards active compounds, which were near 2.1% of everything screened.
UUG fidelity: modulators of start codon recognition fidelity in yeast; S. cerevisiae UUG-firefly luciferase reporter, luminescence/redox ratio; AID 602363; 350,000 tested, 0.13% active; activity score, % at 18.7 µM;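 active = replicate mean at a twofold rise or more, about +100% in these data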;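 also: firefly luciferase made from a UUG start codon reports start codon fidelity; reporter light over untreated wells divided by growth signal over untreated wells; some hits fall short of that in this replicate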
MITF TRPM1 inh: inhibitors of MITF-dependent TRPM1 promoter reporter, primary screen, cell-based, SK-MEL-5, single point, luciferase; AID 488899, 2010; SK-MEL-5 TRPM1 promoter luciferase, 24 h; actives 0.83% (n = 330,000); inhibition, % at 12.5 µM;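 active = mean inhibition across replicates of 60% or more, whatever share of single replicates reaches that level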
MITF act: activators of MITF-driven TRPM1 promoter reporter, primary screen, cell-based, SK-MEL-5, luciferase, single point. SK-MEL-5 TRPM1-promoter luciferase, 24 h; % of positive control, neutral wells = 0. activation, % at 12.5 µM. actives 0.75% (n = 300,000). AID 588334, 2011;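 active = mean activation of at least 80% with every replicate also reaching 80%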;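 also: 0% = neutral control wells and 100% = parthenolide positive control wells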
miR122 inh: miR-122 Renilla sensor signal increase in Huh7, primary screen, miR-122 inhibitor project, cell-based, single point, plate reader | Huh7 miR-122 Renilla luciferase sensor, 48 h; neutral wells = 0, positive control = 100 | activation (reporter increase), % at 12.5 µM | actives 0.3% (n = 340,000);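 active = mean replicate activation score at least 90 and every replicate individually at or above 90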;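 also: higher luciferase means less miR-122 activity so hits act as miR-122 inhibitors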
PGC1a acetyl inh: inhibitors of PGC1a acetylation signal, primary screen, cell-based, U2OS, AlphaScreen, inhibitor mode; AlphaScreen anti-acetyl-lysine; with virally co-expressed GCN5 acetyltransferase; AID 651687, 2012; actives 0.17% (n = 350,000); inhibition, % at 15.6 µM;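 active = every replicate shows inhibition of at least 40%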;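 also: 0% = neutral control wells and 100% = positive control wells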
Wnt bcat act: Wnt/beta-catenin pathway activators, primary screen, cell-based, plate reader, single point; Wnt/beta-catenin reporter cell assay, activator; activation, % at 9.35 µM; actives 1.2% (n = 300,000); AID 743398, 2014; in the data active = activation above about 30%, passing the limit was not always enough;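 also: 0% = neutral control wells and 100% = positive control wells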
Active calls of the source: *; · = no result given; [ ] = dose if it differs, or a comment.

UUG fidelity	MITF TRPM1 inh	MITF act	miR122 inh	PGC1a acetyl inh	Wnt bcat act	SMILES
·	91*	-90	·	·	-30	O=S(=O)(/C(=C/c1ccc(C(F)(F)F)cc1)c1nc2ccccc2[nH]1)c1ccccc1
·	87*	-87	·	·	·	CC(C)c1ccc(/C=C(\c2nc3ccccc3[nH]2)S(=O)(=O)c2ccccc2)cc1
-14	·	·	2[16.7 µM]	-1	·	C[C@@H]1CN([C@H](C)CO)C(=O)c2cc(NC(=O)Nc3ccc(C(F)(F)F)cc3)ccc2O[C@@H](C)CCCCO[C@@H]1CN(C)S(=O)(=O)c1cn(C)cn1
-20	-74	73	-7	5	33*	COc1ccc2oc3ccccc3c(=O)c2c1
-18	-98	101*	-1	-1	29	Cc1ccc2oc3ccccc3c(=O)c2c1
-21	-101	104*	·	·	·	O=c1c2ccccc2oc2ccc(-c3ccc4cc[nH]c4c3)cc12
8	·	·	5[16.7 µM]	26	·	Cc1ccc(S(=O)(=O)N(C)C[C@H]2OCCCC[C@H](C)Oc3ccc(NC(=O)Nc4c(C)noc4C)cc3C(=O)N([C@H](C)CO)C[C@H]2C)cc1
·	-3	5	·	8	0	NC(=S)NC1CCS(=O)(=O)C1 (stereo unspecified)
·	69*	-67	·	·	-3	C=CCSC(=S)NC1CCS(=O)(=O)C1 (stereo unspecified)
-26	-58	62	2	2	44*	c1ccc2c(c1)Cc1cc3ccccc3nc1-2
-31	-52	57	1	1	59*	O=C1c2ccccc2-c2nc3ccccc3cc21
0	·	·	4[16.7 µM]	15	·	Cc1noc(C)c1NC(=O)N(C)C[C@@H]1OCCCC[C@@H](C)Oc2ccc(NC(=O)Nc3ccccc3)cc2C(=O)N([C@H](C)CO)C[C@@H]1C
-3	·	·	-10[16.7 µM]	-10	·	O=C(NC1CCCC1)N1CCCCN2[C@H](CO)[C@H](c3ccc(-c4ccccc4)cc3)[C@H]2C1
·	-15	18	0	-16	74*	O=Nc1c2cc3ccccc3[nH]c-2c2ccccc12
-5	·	·	1	-6	36*	O=C(N=Nc1c(O)[nH]c2ccc(Br)cc12)c1ccco1
-35	76*	-77	-2	25	2	CC(C)c1ccc(/C=C2\SC(=S)N(CCC(=O)N3CCCCC3CCO)C2=O)cc1 (stereo unspecified)
·	-60	65	20	-6	43*	Cc1ccc2nc(Cl)c(/C=N/Nc3ccc(C(=O)O)cc3)cc2c1
1	-108	124*	2	10	13	COc1ccc(/C=N/Nc2ccc(C(=O)O)cc2)c(OC)c1OC
-2	8	·	·	13	2	O=C(N/N=C/c1ccc2nccnc2c1)c1ccncc1
·	·	·	·	·	38*	O=C(N/N=C/c1ccc2nccnc2c1)c1ccccc1O
·	8	-8	·	·	8	O=C(O)c1ccc(N/N=C/c2ccncc2)cc1
·	99*	-98	-9	21	3	O=C(O)c1ccc(N/N=C/c2ccc3nccnc3c2)cc1
-7	·	·	-3[16.7 µM]	-9	·	O=C(C[C@@H]1C[C@@H]2c3cc(NC(=O)Cc4ccncc4)ccc3O[C@@H]2[C@H](CO)O1)NCc1cccnc1
·	·	·	·	0	·	COc1ccc2c3c([nH]c2c1)[C@H](CO)N(C(=O)c1ccccn1)CC31CCN(C(=O)C2CC2)CC1
-3	-115	110*	42	10	25	O=C(O)c1ccc(N/N=C/c2cccc(C(F)(F)F)c2)cc1
-59	97*	-96	-29	45*	-10	O=Nc1c(O)c2ccccc2c2ccccc12
-1	·	·	·	-6	·	N#C[C@H]1[C@H](c2ccccc2)[C@H](CO)N1C(=O)Cc1ccccc1
-17	-153	159*	·	·	28	Cc1nc(N)sc1N=Nc1ccccc1C(F)(F)F
-14	76*	-73	-8	34	-9	Cc1nnc(SC(=O)N2c3ccccc3Sc3ccccc32)s1
-27	-9	6	10	64*	·	CCc1nnc(N/N=C/c2c(Cl)cccc2Cl)n1N

The list goes on, starting with the last 2 of the part before.
UUG fidelity	MITF TRPM1 inh	MITF act	miR122 inh	PGC1a acetyl inh	Wnt bcat act	SMILES
-14	76*	-73	-8	34	-9	Cc1nnc(SC(=O)N2c3ccccc3Sc3ccccc32)s1
-27	-9	6	10	64*	·	CCc1nnc(N/N=C/c2c(Cl)cccc2Cl)n1N
0	6	-6	-6	6	·	CCc1nnc(N/N=C/c2cccs2)n1N
·	-25	31	·	6	56*	S=C(Nc1ccccc1)c1nc2ccccc2s1
13	·	·	-8[16.7 µM]	0	·	COc1cccc(NC(=O)N(C)C[C@H]2Oc3ncc(/C=C/c4ccccc4)cc3C(=O)N([C@H](C)CO)C[C@@H]2C)c1
-12	-48	55	-10	3	16	Cc1ccc(NC(=O)C2C3CCCCC32)cc1[N+](=O)[O-] (stereo unspecified)
-35	-105	120*	-4	6	16	Cc1cc(NC(=O)OC2CCCCC2)ccc1[N+](=O)[O-]
-10	·	·	5[16.7 µM]	-11	·	C[C@@H]1CN([C@@H](C)CO)C(=O)c2cc(NC(=O)Nc3cccc4ccccc34)ccc2O[C@@H]1CN(C)Cc1ccc(Oc2ccccc2)cc1
-11	-72	63	-4	-21	21	CC(=O)c1cccc(OCc2cc(C(=O)N(C)CCC3CCOCC3)no2)c1
21	·	·	-2	0	40*	COc1ccccc1OCc1cc(C(=O)N(C)CCC2CCOCC2)no1
·	·	·	-4[16.7 µM]	-3	·	C[C@H]1CN([C@@H](C)CO)C(=O)Cc2cc(NC(=O)c3ccncc3)ccc2O[C@@H]1CN(C)Cc1ccc(Cl)c(Cl)c1
-18	-97	97*	8	·	26	Cc1cccc(-c2nc3ccccc3c(=O)[nH]2)c1
-12	·	·	-4[16.7 µM]	8	·	C[C@@H]1CN([C@@H](C)CO)C(=O)c2cc(NS(=O)(=O)c3ccc(Cl)cc3)ccc2O[C@@H](C)CCCCO[C@@H]1CN(C)S(=O)(=O)c1ccc(Cl)cc1
-16	-13	·	-2	-28	55*	O=C1C(Cl)=C(Nc2ccccc2O)C(=O)N1c1ccccc1
·	-7	2	·	·	-1	CCOCc1c(C(=O)OCC(=O)/C(C#N)=C(\C)N)oc2ccccc12
-8	5	-4	-6	2	39*	CCOCc1c(C(=O)OCC(=O)Nc2ccccc2C(N)=O)oc2ccccc12
10	95*	-94	-2	-19	0	CC1CCCCN1S(=O)(=O)c1ccc(C(=O)N(CCCN(C)C)c2nc3ccc(Br)cc3s2)cc1 (stereo unspecified)
-7	65*	-63	-1	-16	3	Cc1ccc2sc(N(CCCN(C)C)C(=O)c3ccc(S(=O)(=O)N4CCc5ccccc5C4)cc3)nc2c1C
2	74*	-74	-3	-6	-2	CCOc1ccc2nc(N(CCCN(C)C)C(=O)c3ccc(S(=O)(=O)N4CCc5ccccc5C4)cc3)sc2c1

Four of the compounds above, tab-delimited:
SMILES	UUG fidelity	MITF TRPM1 inh	MITF act	miR122 inh	PGC1a acetyl inh	Wnt bcat act
Cc1nnc(SC(=O)N2c3ccccc3Sc3ccccc32)s1	-14	76*	-73	-8	34	-9
CCc1nnc(N/N=C/c2c(Cl)cccc2Cl)n1N	-27	-9	6	10	64*	·
CCc1nnc(N/N=C/c2cccs2)n1N	0	6	-6	-6	6	·
S=C(Nc1ccccc1)c1nc2ccccc2s1	·	-25	31	·	6	56*
